Values of other authors as cited in patent publication US11707610B2, “Ingestible device for delivery of therapeutic agent to the gastrointestinal tract” (BIORA THERAPEUTICS, INC., priority 2019, dated 2023).

Interferon alfa-2b
Storage temperature: time at room temp: up to seven
